Results taken from PubChem BioAssay (NCI).
Only a part is listed here, and it is no random draw.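 48-hour exposure, single concentration, 96-well plates; percent growth endpoint where 0 means no net growth. Active: below 10.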 The source made the active and inactive calls.

Assays:
Experiment in all cases: NCI-60 one-dose screen, 48 h (100 = growth as untreated, 0 = no growth, -100 = all killed)
Conditions in all cases: 10 µM
SK-MEL-2 melanoma = system: SK-MEL-2 melanoma
EKVX NSCLC = system: EKVX NSCLC
SN12C renal = system: SN12C renal
UO-31 renal = system: UO-31 renal
TK-10 renal = system: TK-10 renal
ACHN renal = system: ACHN renal
CAKI-1 renal = system: CAKI-1 renal
HL-60(TB) leukemia = system: HL-60(TB) leukemia
CCRF-CEM leukemia = system: CCRF-CEM leukemia
MOLT-4 leukemia = system: MOLT-4 leukemia
SR leukemia = system: SR leukemia
RPMI-8226 leukemia = system: RPMI-8226 leukemia
OVCAR-8 ovarian = system: OVCAR-8 ovarian
OVCAR-5 ovarian = system: OVCAR-5 ovarian
OVCAR-4 ovarian = system: OVCAR-4 ovarian
SK-OV-3 ovarian = system: SK-OV-3 ovarian
IGROV1 ovarian = system: IGROV1 ovarian
OVCAR-3 ovarian = system: OVCAR-3 ovarian
HS 578T breast = system: HS 578T breast
A498 renal = system: A498 renal

Measured: growth

O=C(O)CCc1ccc(CSCCCl)cc1
inactive: SK-MEL-2 melanoma 102% | EKVX NSCLC 101% | SN12C renal 94% | UO-31 renal 95.3% | TK-10 renal 99.1% | ACHN renal 103% | CAKI-1 renal 94.5% | HL-60(TB) leukemia 110% | CCRF-CEM leukemia 109% | MOLT-4 leukemia 103% | SR leukemia 90.4% | RPMI-8226 leukemia 119% | OVCAR-8 ovarian 106% | OVCAR-5 ovarian 106% | OVCAR-4 ovarian 107% | SK-OV-3 ovarian 110% | IGROV1 ovarian 101% | OVCAR-3 ovarian 124% | HS 578T breast 104%

COc1cc(CN(CCCl)CCBr)cc(OC)c1
inactive: SK-MEL-2 melanoma 102% | EKVX NSCLC 91.8% | SN12C renal 102% | UO-31 renal 86.1% | TK-10 renal 111% | ACHN renal 101% | A498 renal 82.1% | HL-60(TB) leukemia 87.4% | CCRF-CEM leukemia 89.5% | MOLT-4 leukemia 107% | SR leukemia 89% | RPMI-8226 leukemia 97.8% | OVCAR-8 ovarian 95.8% | OVCAR-5 ovarian 88.8% | OVCAR-4 ovarian 101% | SK-OV-3 ovarian 118% | IGROV1 ovarian 110% | OVCAR-3 ovarian 111%

Cc1ccc(NC2(C#N)CCN(Cc3ccccc3)CC2)cc1
inactive: SK-MEL-2 melanoma 99.6% | EKVX NSCLC 90.3% | SN12C renal 88.6% | UO-31 renal 81% | TK-10 renal 109% | ACHN renal 82% | CAKI-1 renal 63.3% | A498 renal 94.8% | HL-60(TB) leukemia 105% | CCRF-CEM leukemia 92.4% | MOLT-4 leukemia 103% | SR leukemia 91.3% | RPMI-8226 leukemia 101% | OVCAR-8 ovarian 95.7% | OVCAR-5 ovarian 105% | OVCAR-4 ovarian 93.1% | SK-OV-3 ovarian 99.4% | IGROV1 ovarian 99.1% | OVCAR-3 ovarian 109% | HS 578T breast 144%

N#Cc1ccc(N(CCCl)CCCl)cc1
inactive: SK-MEL-2 melanoma 109% | EKVX NSCLC 58.6% | SN12C renal 105% | UO-31 renal 74.8% | TK-10 renal 111% | ACHN renal 102% | A498 renal 117% | HL-60(TB) leukemia 109% | CCRF-CEM leukemia 96.1% | MOLT-4 leukemia 109% | SR leukemia 95.6% | RPMI-8226 leukemia 92.1% | OVCAR-8 ovarian 97.5% | OVCAR-5 ovarian 88.1% | OVCAR-4 ovarian 95.9% | SK-OV-3 ovarian 93% | IGROV1 ovarian 93.8% | OVCAR-3 ovarian 108%

Cc1cccc(CN(CCCl)CCCl)c1
inactive: SK-MEL-2 melanoma 104% | EKVX NSCLC 98.7% | SN12C renal 85.9% | UO-31 renal 78.1% | TK-10 renal 93.4% | ACHN renal 89.1% | HL-60(TB) leukemia 78.7% | CCRF-CEM leukemia 78.3% | MOLT-4 leukemia 78.8% | SR leukemia 52.6% | RPMI-8226 leukemia 91.6% | OVCAR-8 ovarian 88.2% | OVCAR-5 ovarian 102% | OVCAR-4 ovarian 101% | SK-OV-3 ovarian 93.8% | IGROV1 ovarian 72.4% | OVCAR-3 ovarian 83.1%

NC(=O)C1(Nc2ccccc2)CCN(Cc2ccccc2)CC1
inactive: SK-MEL-2 melanoma 103% | EKVX NSCLC 104% | SN12C renal 104% | UO-31 renal 79.8% | TK-10 renal 110% | ACHN renal 110% | CAKI-1 renal 100% | HL-60(TB) leukemia 101% | CCRF-CEM leukemia 107% | MOLT-4 leukemia 100% | RPMI-8226 leukemia 109% | OVCAR-8 ovarian 108% | OVCAR-5 ovarian 94.1% | OVCAR-4 ovarian 108% | SK-OV-3 ovarian 108% | IGROV1 ovarian 111% | OVCAR-3 ovarian 107% | HS 578T breast 111%

Cc1cccc(NC2(C#N)CCN(Cc3ccccc3)CC2)c1
inactive: SK-MEL-2 melanoma 129% | EKVX NSCLC 105% | SN12C renal 106% | UO-31 renal 80.1% | TK-10 renal 114% | ACHN renal 91.2% | HL-60(TB) leukemia 94.1% | CCRF-CEM leukemia 92.1% | MOLT-4 leukemia 105% | SR leukemia 99.5% | RPMI-8226 leukemia 97.3% | OVCAR-8 ovarian 104% | OVCAR-5 ovarian 94.8% | OVCAR-4 ovarian 92.7% | SK-OV-3 ovarian 92.2% | IGROV1 ovarian 105% | OVCAR-3 ovarian 118%

ClCCN(CCCl)Cc1nc2cc(Cl)c(Cl)cc2[nH]1
active: CAKI-1 renal 6.62%
inactive: SK-MEL-2 melanoma 122% | EKVX NSCLC 84.9% | SN12C renal 53.6% | UO-31 renal 64.6% | TK-10 renal 100% | ACHN renal 29.9% | A498 renal 107% | HL-60(TB) leukemia 31% | CCRF-CEM leukemia 48.1% | MOLT-4 leukemia 29% | SR leukemia 16.1% | RPMI-8226 leukemia 73.8% | OVCAR-8 ovarian 67.6% | OVCAR-5 ovarian 126% | OVCAR-4 ovarian 95.8% | SK-OV-3 ovarian 91.6% | OVCAR-3 ovarian 83.5% | HS 578T breast 91.1%

Cc1ccc(NC2(C(N)=O)CCNCC2)cc1
inactive: SK-MEL-2 melanoma 106% | EKVX NSCLC 113% | SN12C renal 83.9% | UO-31 renal 82.6% | TK-10 renal 106% | ACHN renal 103% | CAKI-1 renal 103% | A498 renal 114% | HL-60(TB) leukemia 145% | CCRF-CEM leukemia 100% | MOLT-4 leukemia 104% | SR leukemia 123% | RPMI-8226 leukemia 95.7% | OVCAR-8 ovarian 98.6% | OVCAR-5 ovarian 94.1% | OVCAR-4 ovarian 102% | SK-OV-3 ovarian 97.5% | IGROV1 ovarian 102% | OVCAR-3 ovarian 110% | HS 578T breast 97.3%

CC(C)NP(=O)(F)NC(C)C
inactive: SK-MEL-2 melanoma 111% | EKVX NSCLC 110% | SN12C renal 104% | UO-31 renal 95.6% | TK-10 renal 102% | ACHN renal 116% | CAKI-1 renal 101% | A498 renal 102% | HL-60(TB) leukemia 102% | CCRF-CEM leukemia 106% | MOLT-4 leukemia 93.1% | SR leukemia 109% | RPMI-8226 leukemia 113% | OVCAR-8 ovarian 105% | OVCAR-5 ovarian 110% | OVCAR-4 ovarian 108% | SK-OV-3 ovarian 106% | IGROV1 ovarian 103% | OVCAR-3 ovarian 106% | HS 578T breast 105%

Cc1ccc(CN(CCCl)CCCl)cc1
inactive: SK-MEL-2 melanoma 115% | EKVX NSCLC 105% | SN12C renal 92.1% | UO-31 renal 83.7% | TK-10 renal 99.8% | ACHN renal 94.4% | HL-60(TB) leukemia 78.5% | CCRF-CEM leukemia 91.5% | MOLT-4 leukemia 83% | SR leukemia 62.7% | RPMI-8226 leukemia 94.9% | OVCAR-8 ovarian 96.9% | OVCAR-5 ovarian 112% | OVCAR-4 ovarian 101% | SK-OV-3 ovarian 89.6% | IGROV1 ovarian 70.4% | OVCAR-3 ovarian 89.7%

ClCCN(CCCl)Cc1ccc2c(c1)OCO2
inactive: SK-MEL-2 melanoma 113% | EKVX NSCLC 99.1% | SN12C renal 66.2% | UO-31 renal 85% | TK-10 renal 110% | ACHN renal 49.6% | CAKI-1 renal 38.1% | A498 renal 76.4% | HL-60(TB) leukemia 73.2% | CCRF-CEM leukemia 63.9% | MOLT-4 leukemia 65.3% | SR leukemia 29.8% | RPMI-8226 leukemia 89.8% | OVCAR-8 ovarian 82.8% | OVCAR-5 ovarian 98.7% | OVCAR-4 ovarian 110% | SK-OV-3 ovarian 91.1% | IGROV1 ovarian 79.7% | OVCAR-3 ovarian 105% | HS 578T breast 95.1%

COc1ccc(N)cc1CN(CCCl)CCCl
inactive: SK-MEL-2 melanoma 82.5% | EKVX NSCLC 90.6% | SN12C renal 63.2% | UO-31 renal 78.3% | TK-10 renal 71.2% | ACHN renal 41.5% | CAKI-1 renal 33.8% | A498 renal 76.3% | HL-60(TB) leukemia 30.5% | CCRF-CEM leukemia 32.4% | MOLT-4 leukemia 33.5% | SR leukemia 34.8% | RPMI-8226 leukemia 73.3% | OVCAR-8 ovarian 75.5% | OVCAR-5 ovarian 108% | OVCAR-4 ovarian 107% | SK-OV-3 ovarian 74.1% | IGROV1 ovarian 78.5% | OVCAR-3 ovarian 80.1% | HS 578T breast 101%

O=c1[nH]cc(CN(CCCl)CCCl)c(=O)[nH]1
inactive: SK-MEL-2 melanoma 101% | EKVX NSCLC 96.1% | SN12C renal 96.2% | UO-31 renal 86.5% | TK-10 renal 98.2% | ACHN renal 93.2% | CAKI-1 renal 91.9% | HL-60(TB) leukemia 96.2% | CCRF-CEM leukemia 109% | MOLT-4 leukemia 101% | SR leukemia 101% | RPMI-8226 leukemia 103% | OVCAR-8 ovarian 101% | OVCAR-5 ovarian 99.3% | OVCAR-4 ovarian 107% | IGROV1 ovarian 101% | OVCAR-3 ovarian 111% | HS 578T breast 105%

Fc1cccc(CBr)c1
inactive: SK-MEL-2 melanoma 93.6% | EKVX NSCLC 100% | SN12C renal 108% | UO-31 renal 81.6% | TK-10 renal 110% | ACHN renal 109% | CAKI-1 renal 102% | A498 renal 99.8% | HL-60(TB) leukemia 97.1% | MOLT-4 leukemia 95% | SR leukemia 96.8% | RPMI-8226 leukemia 112% | OVCAR-8 ovarian 110% | OVCAR-5 ovarian 108% | OVCAR-4 ovarian 111% | SK-OV-3 ovarian 104% | IGROV1 ovarian 104% | OVCAR-3 ovarian 104% | HS 578T breast 99.9%

O=C1CCN(CCc2ccccc2)CC1
inactive: SK-MEL-2 melanoma 100% | EKVX NSCLC 96.7% | SN12C renal 93.6% | UO-31 renal 86.1% | TK-10 renal 110% | ACHN renal 102% | CAKI-1 renal 89.2% | A498 renal 83.1% | HL-60(TB) leukemia 167% | CCRF-CEM leukemia 108% | MOLT-4 leukemia 156% | SR leukemia 134% | RPMI-8226 leukemia 92.3% | OVCAR-8 ovarian 94.4% | OVCAR-5 ovarian 75.6% | OVCAR-4 ovarian 116% | SK-OV-3 ovarian 90.5% | IGROV1 ovarian 82.6% | OVCAR-3 ovarian 132% | HS 578T breast 43.6%

Oc1ccc(N(CCCl)CCCl)cc1
inactive: SK-MEL-2 melanoma 111% | EKVX NSCLC 106% | SN12C renal 62.8% | UO-31 renal 81.6% | TK-10 renal 100% | ACHN renal 27.7% | CAKI-1 renal 37.6% | A498 renal 114% | HL-60(TB) leukemia 46.8% | CCRF-CEM leukemia 57% | MOLT-4 leukemia 56.9% | SR leukemia 30.2% | RPMI-8226 leukemia 76.6% | OVCAR-8 ovarian 83% | OVCAR-5 ovarian 128% | OVCAR-4 ovarian 102% | SK-OV-3 ovarian 90.2% | IGROV1 ovarian 97.8% | OVCAR-3 ovarian 130% | HS 578T breast 123%

N#CC1(Nc2ccccc2)CCN(Cc2ccccc2)CC1
inactive: SK-MEL-2 melanoma 90.2% | EKVX NSCLC 87.4% | SN12C renal 92.5% | UO-31 renal 78.6% | TK-10 renal 256% | ACHN renal 99.4% | CAKI-1 renal 68.2% | A498 renal 105% | HL-60(TB) leukemia 159% | CCRF-CEM leukemia 104% | MOLT-4 leukemia 147% | SR leukemia 128% | RPMI-8226 leukemia 106% | OVCAR-8 ovarian 109% | OVCAR-5 ovarian 111% | OVCAR-4 ovarian 101% | SK-OV-3 ovarian 50.1% | IGROV1 ovarian 91.4% | OVCAR-3 ovarian 103% | HS 578T breast 100%
